Experimental data as given in ChEMBL document CHEMBL4619828, “Discovery of Potent and Orally Bioavailable Small Molecule Antagonists of Toll-like Receptors 7/8/9 (TLR7/8/9)” (ACS Med Chem Lett, 2020).

What was measured:
Assay type in all cases: functional, organism-based
[1] = molecular target: T1, Toll-like receptor 7 (Mus musculus) (UniProt P58681); experiment: In vivo antagonist activity at TLR7 in C57BL/6 mouse assessed as reduction of gardiquimod-induced IL-6 production at 0.1 mg/kg, po pretreated for 30 mins followed by gardiquimod-stimulation and measured after 120 mins by ELISA; parameters: scale not given: the % may be the effect or the level left
T1 sequence (whole entry): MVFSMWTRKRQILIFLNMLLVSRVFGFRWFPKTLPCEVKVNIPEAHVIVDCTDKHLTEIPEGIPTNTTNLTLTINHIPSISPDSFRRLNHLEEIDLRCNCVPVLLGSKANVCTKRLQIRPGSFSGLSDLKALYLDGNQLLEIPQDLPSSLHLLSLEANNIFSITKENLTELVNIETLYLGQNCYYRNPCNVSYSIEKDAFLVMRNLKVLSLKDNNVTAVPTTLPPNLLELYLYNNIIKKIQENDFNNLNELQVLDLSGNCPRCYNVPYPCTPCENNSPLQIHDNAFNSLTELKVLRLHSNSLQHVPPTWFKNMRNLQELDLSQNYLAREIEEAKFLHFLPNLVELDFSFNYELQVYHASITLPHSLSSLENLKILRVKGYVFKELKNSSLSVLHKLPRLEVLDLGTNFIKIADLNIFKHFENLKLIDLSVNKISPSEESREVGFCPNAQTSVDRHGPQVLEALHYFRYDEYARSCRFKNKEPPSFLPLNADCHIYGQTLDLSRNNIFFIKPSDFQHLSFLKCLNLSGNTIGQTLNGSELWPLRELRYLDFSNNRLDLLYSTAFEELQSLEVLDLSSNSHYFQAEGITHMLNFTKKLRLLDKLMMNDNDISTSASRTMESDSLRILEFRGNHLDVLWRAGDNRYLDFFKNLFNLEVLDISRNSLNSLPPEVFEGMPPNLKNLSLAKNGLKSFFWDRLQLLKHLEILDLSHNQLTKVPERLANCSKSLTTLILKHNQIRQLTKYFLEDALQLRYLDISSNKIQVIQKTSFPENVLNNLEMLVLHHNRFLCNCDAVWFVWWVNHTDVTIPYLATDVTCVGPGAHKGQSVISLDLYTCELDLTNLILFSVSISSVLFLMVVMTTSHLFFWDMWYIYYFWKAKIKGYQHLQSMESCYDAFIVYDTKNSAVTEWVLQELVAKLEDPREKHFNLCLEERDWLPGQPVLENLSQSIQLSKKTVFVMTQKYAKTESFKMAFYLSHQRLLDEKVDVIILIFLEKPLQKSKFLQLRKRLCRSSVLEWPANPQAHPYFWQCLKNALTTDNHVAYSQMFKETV

[2] = molecular target: T2, Toll-like receptor 9 (Mus musculus) (UniProt Q9EQU3); experiment: In vivo antagonist activity at TLR9 in C57BL/6 mouse assessed as reduction of CpG-ODN-1585-induced IL-6 production at 30 mg/kg, po pretreated for 30 mins followed by CpG-ODN-1585-stimulation and measured after 120 mins by ELISA; parameters: scale not given: the % may be the effect or the level left
T2 sequence (whole entry): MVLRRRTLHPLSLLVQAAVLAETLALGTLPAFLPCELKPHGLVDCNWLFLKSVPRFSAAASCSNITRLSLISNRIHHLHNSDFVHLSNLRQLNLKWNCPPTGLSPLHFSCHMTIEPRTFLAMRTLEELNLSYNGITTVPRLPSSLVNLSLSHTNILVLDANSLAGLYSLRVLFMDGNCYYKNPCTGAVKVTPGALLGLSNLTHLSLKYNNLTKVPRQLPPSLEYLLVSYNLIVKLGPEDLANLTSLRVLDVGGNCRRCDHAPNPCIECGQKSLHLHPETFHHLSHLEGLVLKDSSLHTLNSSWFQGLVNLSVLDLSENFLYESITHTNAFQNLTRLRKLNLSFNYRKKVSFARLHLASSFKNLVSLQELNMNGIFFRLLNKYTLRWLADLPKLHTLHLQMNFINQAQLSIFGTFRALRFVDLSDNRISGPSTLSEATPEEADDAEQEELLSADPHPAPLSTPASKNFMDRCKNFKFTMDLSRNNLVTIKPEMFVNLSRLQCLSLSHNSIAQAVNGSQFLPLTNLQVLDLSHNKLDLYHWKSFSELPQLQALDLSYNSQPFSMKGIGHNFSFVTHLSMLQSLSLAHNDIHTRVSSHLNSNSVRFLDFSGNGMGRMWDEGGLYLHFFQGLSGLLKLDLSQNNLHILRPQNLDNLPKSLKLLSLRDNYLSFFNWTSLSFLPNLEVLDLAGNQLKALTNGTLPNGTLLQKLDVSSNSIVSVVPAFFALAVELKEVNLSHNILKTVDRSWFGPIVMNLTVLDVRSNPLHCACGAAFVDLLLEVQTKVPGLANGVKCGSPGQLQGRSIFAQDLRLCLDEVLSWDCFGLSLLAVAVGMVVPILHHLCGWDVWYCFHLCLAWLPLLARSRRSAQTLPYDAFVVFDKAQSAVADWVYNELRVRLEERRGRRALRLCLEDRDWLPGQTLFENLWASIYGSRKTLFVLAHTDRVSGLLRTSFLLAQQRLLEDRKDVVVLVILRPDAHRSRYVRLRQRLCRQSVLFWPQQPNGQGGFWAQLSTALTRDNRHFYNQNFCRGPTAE

[3] = molecular target: T1, Toll-like receptor 7 (Mus musculus); experiment: In vivo antagonist activity at TLR7 in po dosed C57BL/6 mouse assessed as reduction of gardiquimod-induced IL-6 production pretreated for 30 mins followed by gardiquimod-stimulation and measured after 120 mins by ELISA
[4] = molecular target: T2, Toll-like receptor 9 (Mus musculus); experiment: In vivo antagonist activity at TLR9 in po dosed C57BL/6 mouse assessed as reduction of CpG-ODN-1585-induced IL-6 production pretreated for 30 mins followed by CpG-ODN-1585-stimulation and measured after 120 mins by ELISA
[5] = molecular target: T1, Toll-like receptor 7 (Mus musculus); experiment: In vivo antagonist activity at TLR7 in C57BL/6 mouse assessed as reduction of gardiquimod-induced IL-6 production at 30 mg/kg, po pretreated for 30 mins followed by gardiquimod-stimulation and measured after 120 mins by ELISA; parameters: scale not given: the % may be the effect or the level left
[6] = molecular target: T2, Toll-like receptor 9 (Mus musculus); experiment: In vivo antagonist activity at TLR9 in C57BL/6 mouse assessed as reduction of CpG-ODN-1585-induced IL-6 production at 3 mg/kg, po pretreated for 30 mins followed by CpG-ODN-1585-stimulation and measured after 120 mins by ELISA; parameters: scale not given: the % may be the effect or the level left
[7] = molecular target: T2, Toll-like receptor 9 (Mus musculus); experiment: In vivo antagonist activity at TLR9 in C57BL/6 mouse assessed as reduction of CpG-ODN-1585-induced IL-6 production at 0.3 mg/kg, po pretreated for 30 mins followed by CpG-ODN-1585-stimulation and measured after 120 mins by ELISA; parameters: scale not given: the % may be the effect or the level left
[8] = molecular target: T2, Toll-like receptor 9 (Mus musculus); experiment: In vivo antagonist activity at TLR9 in C57BL/6 mouse assessed as reduction of CpG-ODN-1585-induced IL-6 production at 1 mg/kg, po pretreated for 30 mins followed by CpG-ODN-1585-stimulation and measured after 120 mins by ELISA; parameters: scale not given: the % may be the effect or the level left
[9] = molecular target: T1, Toll-like receptor 7 (Mus musculus); experiment: In vivo antagonist activity at TLR7 in C57BL/6 mouse assessed as reduction of gardiquimod-induced IL-6 production at 1 mg/kg, po pretreated for 30 mins followed by gardiquimod-stimulation and measured after 120 mins by ELISA; parameters: scale not given: the % may be the effect or the level left
[10] = molecular target: T1, Toll-like receptor 7 (Mus musculus); experiment: In vivo antagonist activity at TLR7 in C57BL/6 mouse assessed as reduction of gardiquimod-induced IL-6 production at 10 mg/kg, po pretreated for 30 mins followed by gardiquimod-stimulation and measured after 120 mins by ELISA; parameters: scale not given: the % may be the effect or the level left
[11] = molecular target: T1, Toll-like receptor 7 (Mus musculus); experiment: In vivo antagonist activity at TLR7 in C57BL/6 mouse assessed as reduction of gardiquimod-induced IL-6 production at 3 mg/kg, po pretreated for 30 mins followed by gardiquimod-stimulation and measured after 120 mins by ELISA; parameters: scale not given: the % may be the effect or the level left
[12] = molecular target: T2, Toll-like receptor 9 (Mus musculus); experiment: In vivo antagonist activity at TLR9 in C57BL/6 mouse assessed as reduction of CpG-ODN-1585-induced IL-6 production at 0.1 mg/kg, po pretreated for 30 mins followed by CpG-ODN-1585-stimulation and measured after 120 mins by ELISA; parameters: scale not given: the % may be the effect or the level left

CNCCN1CCC(c2ccc3[nH]c(-c4ccc(OC)c(OC)c4)c(C(C)C)c3c2)CC1
Activity [1]: 34% | Activity [2]: 87% | Activity [3]: Dose-dependent effect | Activity [4]: Dose-dependent effect | Activity [5]: 99% | Activity [6]: 74% | Activity [7]: 16% | Activity [8]: 45% | Activity [9]: 68% | Activity [10]: 97% | Activity [11]: 88% | Activity [12]: 8%
